Experimental findings from PubChem BioAssay AID2650 (Broad Institute, 2010) are described below.

Protein sequences, listed by entry. Tags and fused reporters are not part of them.
UniProt P49840, whole entry: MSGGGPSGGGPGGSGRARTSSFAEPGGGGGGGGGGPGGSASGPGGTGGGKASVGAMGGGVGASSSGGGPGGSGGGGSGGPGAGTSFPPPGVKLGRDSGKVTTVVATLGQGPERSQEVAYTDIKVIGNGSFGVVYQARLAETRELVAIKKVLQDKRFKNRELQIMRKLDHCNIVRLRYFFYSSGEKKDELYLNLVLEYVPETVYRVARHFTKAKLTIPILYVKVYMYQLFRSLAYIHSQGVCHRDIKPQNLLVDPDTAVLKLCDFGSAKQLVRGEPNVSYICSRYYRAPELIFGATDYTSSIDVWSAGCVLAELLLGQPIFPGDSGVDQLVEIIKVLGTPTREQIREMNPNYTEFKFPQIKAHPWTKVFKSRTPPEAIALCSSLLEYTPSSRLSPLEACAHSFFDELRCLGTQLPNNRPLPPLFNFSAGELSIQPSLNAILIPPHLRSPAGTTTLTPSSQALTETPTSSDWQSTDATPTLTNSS

Only a part is listed here, and it is no random draw. Some salts or complexes appear as unconnected parts, following the source record. Active and inactive are the calls of the source.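 Rule for the calls: active = more than half of replicates show inhibition above 20%; inconclusive = some but at most half of replicates above 20% inhibition; inactive = no replicate shows inhibition above 20%.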

The target in the test is Glycogen synthase kinase-3 alpha (Homo sapiens) (UniProt P49840). As to the kind of experiment: blockers of GSK3A enzyme activity – biochemical, luminescence, cell-free homogeneous, HTS, primary screen (AID 2650).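 Note: GST-tagged GSK-3 alpha with peptide substrate and 25 µM ATP; 0% = DMSO neutral wells and 100% = GW8510 positive control wells.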 As to conditions: GSK-3 alpha kinase, ADP-Glo luminescence, 60 min; at 10 µM; hits give high values. (ADP-Glo first removes unused ATP, then detects ADP through luciferase.)
What is called inhibition is the relative decrease from the control value, in per cent. Turning to `CN(C)C(=O)c1c([N+](=O)[O-])cc([N+](=O)[O-])cc1[N+](=O)[O-]`, the inhibition is inactive: -0.202%.
Take `COc1ccccc1OP(C)(=O)Nc1ccccc1Br` (stereo unspecified): the inhibition was inactive: -6.8%.
Then `CC(C)(C)c1ccc(OP(C)(=O)O)cc1`, with inactive: -2.24%; and `CP(=O)(Nc1ccc(Cl)cc1)Oc1ccc(F)cc1` (stereo unspecified), with inactive: -0.114%; and `O=C(OCCCN1CCCC1)C(O)(c1ccccc1)C1CCCCC1` (stereo unspecified), with inactive: -2.16%.
Regarding `COc1ccccc1OP(C)(=O)Nc1c(C)n(C)n(-c2ccccc2)c1=O` (stereo unspecified), the inhibition was inactive: -0.876%.
Then `CCc1ccc(OP(C)(=O)Nc2cccnc2)cc1` (stereo unspecified), with inactive: -3.11%; and `CP(=O)(Oc1ccccc1)N1CCOC1=O` (stereo unspecified), with inactive: -2.33%; and `CCN(CC)CC(O)COC(=O)C(O)(c1ccccc1)C1CCCCC1` (stereo unspecified), with inactive: -2.78%.
On to `CCOC(=O)c1ccc(NP(C)(=O)Oc2ccc(Cl)cc2)cc1` (stereo unspecified), for which the inhibition is inactive: -0.123%.
`CP(=O)(OC12CC3CC(CC(C3)C1)C2)OC12CC3CC(CC(C3)C1)C2`: the inhibition was inactive: -2.09%.
For `Nc1ccc2c(ccc3cccnc32)n1.O=[N+]([O-])c1cc([N+](=O)[O-])c(O)c([N+](=O)[O-])c1`, the inhibition is inactive: -0.482%.
In the case of `CP(=O)(Nc1ccc(Cl)cc1Cl)Oc1ccccc1` (stereo unspecified), the inhibition was inactive: -1.42%.
Then `CP(=O)(OCCOc1ccccc1)OCCOc1ccccc1`, with inactive: -3.25%.
With `COc1ccccc1OP(C)(=O)Nc1ccc(C)c(C)c1` (stereo unspecified), the inhibition was inactive: -1.17%.
Then `COc1ccc(OP(C)(=O)Nc2ccccc2Br)cc1` (stereo unspecified), with inactive: -2.15%; and `Cc1cc(C)cc(OP(C)(=O)Nc2cccc(C(F)(F)F)c2)c1` (stereo unspecified), with inactive: 9.83%; and `COc1ccccc1OP(C)(=O)Nc1ccc(C)cc1C` (stereo unspecified), with inactive: 0.654%.
As for `CP(=O)(Nc1ccccn1)Oc1ccccc1` (stereo unspecified), the inhibition is inactive: -0.475%.
With `CCc1ccc(OP(C)(=O)O)cc1`, the inhibition is inactive: -1.42%.
Then `Cc1c(NP(C)(=O)Oc2ccc(C(C)C)cc2)c(=O)n(-c2ccccc2)n1C` (stereo unspecified), with inactive: -0.248%.
Then `O=[N+]([O-])c1cc([N+](=O)[O-])c(Nc2ccccn2)c([N+](=O)[O-])c1`, with inactive: 0.64%; and `COc1ccc(OP(C)(=O)Nc2ccccn2)cc1` (stereo unspecified), with inactive: -5.85%.
On to `CN(C)CCOC(=O)C(O)(c1ccccc1)C1CCCC1` (stereo unspecified), for which the inhibition was inactive: -2.95%.
Then `COc1ccccc1OP(C)(=O)Nc1ccc(Br)cc1` (stereo unspecified), with inactive: -1.2%; and `COc1ccc2c(c1O)-c1c(O)c(OC)cc3c1[C@H](C2)[N+](C)(C)CC3.O=[N+]([O-])c1cc([N+](=O)[O-])c([O-])c([N+](=O)[O-])c1[O-]`, with inactive: -2.87%; and `O=C(OC1CN2CCC1CC2)c1ccc([N+](=O)[O-])cc1` (stereo unspecified), with inactive: -2.13%.
On to `O=C(OCCN1CCN(CCOCc2ccccc2)CC1)C(O)(c1ccccc1)c1ccccc1`, for which the inhibition is inactive: -1.28%.
For `CP(=O)(Nc1ccccc1F)Oc1ccccc1` (stereo unspecified), the inhibition was inactive: 0.034%.
With `CC(C)c1ccc(OP(C)(=O)Nc2ccc(SC(F)(F)F)cc2)cc1` (stereo unspecified), the inhibition is inactive: -0.367%.
With `CP(=O)(Nc1ccccc1)Oc1ccc(F)cc1` (stereo unspecified), the inhibition is inactive: -0.475%.
Regarding `CCCCCOc1ccc(NP(C)(=O)Oc2ccc(Cl)cc2Cl)cc1` (stereo unspecified), the inhibition was inactive: -2.16%.
The value for `O=[N+]([O-])c1cc([N+](=O)[O-])c(OC2CCCCC2O)c([N+](=O)[O-])c1` (stereo unspecified) was inactive: 6.41%; that for `CCN(CC)CCCOC(=O)C(O)(c1ccccc1)C1CCCCC1` (stereo unspecified) was inactive: -1.13%.
On to `CCOC(=O)c1ccc(NP(C)(=O)Oc2ccc(F)cc2)cc1` (stereo unspecified), for which the inhibition is inactive: -3.9%.
On to `COc1ccc(OP(C)(=O)Nc2ccc(SC(F)(F)F)cc2)cc1` (stereo unspecified), for which the inhibition is inactive: -0.945%.
The value for `O=[N+]([O-])c1ccc(OP2(=O)COCCO2)cc1` (stereo unspecified) was inactive: -2.73%; that for `O=[N+]([O-])c1cc([N+](=O)[O-])c(NCC2CCS(=O)(=O)C2)c([N+](=O)[O-])c1` (stereo unspecified) was inactive: 3.15%.
Turning to `CN(C)CCOC(=O)C(O)(c1ccccc1)C1CCCCC1` (stereo unspecified), the inhibition is inactive: 0.356%.
As for `COc1ccc(NP(C)(=O)Oc2ccccc2OC)cc1` (stereo unspecified), the inhibition was inactive: -1.29%.
The value for `COc1ccc(OP(C)(=O)Nc2cccc(Br)c2)cc1` (stereo unspecified) was inactive: -2.88%.
Regarding `Cc1ccccc1NP(C)(=O)Nc1ccccc1C`, the inhibition was inactive: 1.74%.
Then `CP(=O)(Nc1ccc2c(c1)OCCO2)Oc1ccccc1` (stereo unspecified), with inactive: -2.56%.
Then `CCOP(C)(=S)SCC(=O)NC(C)(CC)C(=O)O` (stereo unspecified), with inactive: -1.54%; and `CP(=O)(Nc1ccc(SC(F)(F)F)cc1)Oc1ccc(F)cc1` (stereo unspecified), with inactive: -6.01%; and `Cc1nc2ccc3ccccc3c2s1.O=[N+]([O-])c1cc([N+](=O)[O-])c(O)c([N+](=O)[O-])c1`, with inactive: -0.612%.
As for `O=[N+]([O-])c1cc([N+](=O)[O-])c(-c2cnn(-c3ccccc3)c2)c([N+](=O)[O-])c1`, the inhibition is inactive: -1.62%.
Turning to `O=[N+]([O-])c1cc([N+](=O)[O-])c(-n2nnc3ccccc32)c([N+](=O)[O-])c1`, the inhibition was inactive: -3%.
As to `CCCOc1ccc(NP(C)(=O)Oc2ccc(Cl)cc2)cc1` (stereo unspecified), the inhibition was inactive: -0.421%.
The value for `CP(=O)(Nc1ccc(SC(F)(F)F)cc1)Oc1ccccc1` (stereo unspecified) was inactive: -2.32%; that for `COc1ccccc1OP(C)(=O)Nc1c(C)cccc1C` (stereo unspecified) was inactive: -1.48%; that for `CN1CCCCC1COC(=O)C1(O)c2ccccc2CCc2ccccc21` (stereo unspecified) was inactive: 1.47%.
As to `CCOC(=O)C(CC)C1=NC(C)(C)Cc2ccccc21.O=[N+]([O-])c1cc([N+](=O)[O-])c(O)c([N+](=O)[O-])c1` (stereo unspecified), the inhibition is inactive: -3.83%.
The value for `CC1=C2N=C(C=C3N=C(C(C)=C4[N-][C@@](C)([C@@H]5N=C1[C@](C)(CCC(=O)NC[C@@H](C)OP(=O)([O-])O[C@H]1[C@@H](O)[C@@H](n6cnc7cc(C)c(C)cc76)O[C@@H]1CO)[C@H]5CC(N)=O)[C@@](C)(CC(N)=O)[C@@H]4CCC(N)=O)[C@@](C)(CC(N)=O)[C@@H]3CCC(N)=O)C(C)(C)[C@@H]2CCC(N)=O.[C-]#N.[Co+3]` was inactive: -3.9%; that for `O=[N+]([O-])c1cc([N+](=O)[O-])c(Nc2nnnn2CCO)c([N+](=O)[O-])c1` was inactive: 1.02%.
For `CC1=NCCc2c1[nH]c1ccccc21.O=[N+]([O-])c1cc([N+](=O)[O-])c(O)c([N+](=O)[O-])c1`, the inhibition is inactive: -1.18%.
The value for `O=C(O)c1cccc(Nc2c([N+](=O)[O-])cc([N+](=O)[O-])cc2[N+](=O)[O-])c1` was inactive: 0.165%; that for `Cc1ccc(C)c(NP(C)(=O)Oc2ccccc2)c1` (stereo unspecified) was inactive: -1.94%.
In the case of `Cc1cc(C)cc(OP(C)(=O)Nc2ccccn2)c1` (stereo unspecified), the inhibition is inactive: -2.28%.
Turning to `CP(=O)(Nc1cccc(Br)c1)Oc1ccccc1` (stereo unspecified), the inhibition was inactive: 0.334%.
As to `CCOC(=O)c1ccc(NP(C)(=O)Oc2cc(C)cc(C)c2)cc1` (stereo unspecified), the inhibition was inactive: 1.02%.
Regarding `Cc1cc(C)cc(OP(C)(=O)Nc2ccc(C)cc2C)c1` (stereo unspecified), the inhibition is inactive: -0.942%.
Consider `COc1ccccc1OP(C)(=O)Nc1cccc(Br)c1` (stereo unspecified), for which the inhibition is inactive: 1.26%.
The value for `CCN(CC)CCCOC(=O)C(O)(c1ccccc1)c1ccccc1` was inactive: -2.22%; that for `Cc1cc(C)cc(OP(C)(N)=O)c1` (stereo unspecified) was inactive: -3.39%; that for `COc1ccc(OP(C)(=O)Nc2cccc(F)c2)cc1` (stereo unspecified) was inactive: 0.479%.
Then `COc1ccccc1OP(C)(=O)Nc1cc(Cl)ccc1C` (stereo unspecified), with inactive: 0.815%; and `Cc1ccc(NP(C)(=O)Oc2ccccc2)c(C)c1` (stereo unspecified), with inactive: 0.763%; and `COc1ccccc1OP(C)(=O)Nc1ccc(C)cc1` (stereo unspecified), with inactive: 0.124%.
With `CCOC(=O)c1ccc(NP(C)(=O)Oc2ccccc2)cc1` (stereo unspecified), the inhibition is inactive: -4.74%.
`O=[N+]([O-])c1ccc2c(c1)C=Nc1ccccc1O2`: the inhibition was inactive: 0.027%.
`CC(C)(C)c1ccc(OP(C)(=O)Nc2ccc(SC(F)(F)F)cc2)cc1` (stereo unspecified): the inhibition is inactive: -1.16%.
Then `O=[N+]([O-])c1cc([N+](=O)[O-])c(Nc2cccnc2)c([N+](=O)[O-])c1`, with inactive: 2.51%; and `CP(=O)(Nc1ccccc1Br)Oc1ccccc1` (stereo unspecified), with inactive: -2.34%.
For the molecule `COc1ccccc1OP(C)(=O)Nc1ccccc1` (stereo unspecified), the inhibition was inactive: -1.69%.
Consider `CP(=S)(Nn1cnnc1)Oc1ccccc1` (stereo unspecified), for which the inhibition is inactive: -2.54%.
The value for `CP(=O)(Nc1ccccn1)Oc1ccc(Cl)cc1` (stereo unspecified) was inactive: -0.0825%; that for `CCOC(=O)c1ccc(NP(C)(=O)Oc2ccc(OC)cc2)cc1` (stereo unspecified) was inactive: 0.255%.
`O=[N+]([O-])c1cc([N+](=O)[O-])c(O)c([N+](=O)[O-])c1.c1ccc(Oc2ccncc2)cc1`: the inhibition was inactive: -2.52%.
The value for `CCOP(C)(=S)SCC(=O)NC(C)C(=O)O` (stereo unspecified) was inactive: 0.296%; that for `Cc1cc(C)cc(OP(C)(=O)Nc2ccc(SC(F)(F)F)cc2)c1` (stereo unspecified) was inactive: -2.43%; that for `CP(=O)(NC(=O)Nc1ccccc1)Oc1ccccc1` (stereo unspecified) was inactive: -1.08%.
For `CCc1ccc(OP(C)(=O)N2CCN(c3ccc([N+](=O)[O-])cc3)CC2)cc1` (stereo unspecified), the inhibition is inactive: -0.106%.
`CP(=O)(Oc1ccccc1)OC(c1ccccc1)C(F)(F)F` (stereo unspecified): the inhibition is inactive: -0.254%.
Regarding `Cc1cccc(C)c1OP(C)(=O)Nc1ccc(SC(F)(F)F)cc1` (stereo unspecified), the inhibition was inactive: -2.19%.
The value for `CP(=O)(Nc1ccc(SC(F)(F)F)cc1)Oc1ccc(Cl)cc1` (stereo unspecified) was inactive: -2.31%.
